Drawing on patent US7157487B2, “Vla-4 inhibitors” (Daiichi Pharmaceutical Co., Ltd., priority 2000, dated 2007), this text covers Ki for 1 compound.

Protein sequences, listed by entry. Tags and fused reporters are not part of them. Residues count along the entry.
UniProt P05556, 21-798 limits assumed: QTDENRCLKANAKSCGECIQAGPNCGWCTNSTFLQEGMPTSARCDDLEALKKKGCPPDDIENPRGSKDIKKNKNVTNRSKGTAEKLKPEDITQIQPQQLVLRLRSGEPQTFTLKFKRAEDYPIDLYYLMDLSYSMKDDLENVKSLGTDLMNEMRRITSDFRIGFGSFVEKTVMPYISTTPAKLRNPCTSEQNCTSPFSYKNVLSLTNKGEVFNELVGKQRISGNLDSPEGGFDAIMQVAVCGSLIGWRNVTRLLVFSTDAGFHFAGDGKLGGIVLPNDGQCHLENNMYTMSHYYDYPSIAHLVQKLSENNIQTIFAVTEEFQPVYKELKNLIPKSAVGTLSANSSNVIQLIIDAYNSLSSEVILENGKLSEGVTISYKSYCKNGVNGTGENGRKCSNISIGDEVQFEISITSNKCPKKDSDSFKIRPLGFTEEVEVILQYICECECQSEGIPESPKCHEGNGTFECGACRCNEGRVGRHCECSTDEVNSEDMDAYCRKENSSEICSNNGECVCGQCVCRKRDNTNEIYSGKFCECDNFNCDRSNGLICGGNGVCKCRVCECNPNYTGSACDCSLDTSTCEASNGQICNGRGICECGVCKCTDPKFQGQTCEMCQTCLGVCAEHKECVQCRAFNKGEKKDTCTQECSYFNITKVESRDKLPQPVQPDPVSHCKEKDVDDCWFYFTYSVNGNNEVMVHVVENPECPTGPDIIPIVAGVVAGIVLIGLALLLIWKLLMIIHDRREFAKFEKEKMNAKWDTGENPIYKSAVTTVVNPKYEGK
UniProt P13612, 34-1032 limits assumed: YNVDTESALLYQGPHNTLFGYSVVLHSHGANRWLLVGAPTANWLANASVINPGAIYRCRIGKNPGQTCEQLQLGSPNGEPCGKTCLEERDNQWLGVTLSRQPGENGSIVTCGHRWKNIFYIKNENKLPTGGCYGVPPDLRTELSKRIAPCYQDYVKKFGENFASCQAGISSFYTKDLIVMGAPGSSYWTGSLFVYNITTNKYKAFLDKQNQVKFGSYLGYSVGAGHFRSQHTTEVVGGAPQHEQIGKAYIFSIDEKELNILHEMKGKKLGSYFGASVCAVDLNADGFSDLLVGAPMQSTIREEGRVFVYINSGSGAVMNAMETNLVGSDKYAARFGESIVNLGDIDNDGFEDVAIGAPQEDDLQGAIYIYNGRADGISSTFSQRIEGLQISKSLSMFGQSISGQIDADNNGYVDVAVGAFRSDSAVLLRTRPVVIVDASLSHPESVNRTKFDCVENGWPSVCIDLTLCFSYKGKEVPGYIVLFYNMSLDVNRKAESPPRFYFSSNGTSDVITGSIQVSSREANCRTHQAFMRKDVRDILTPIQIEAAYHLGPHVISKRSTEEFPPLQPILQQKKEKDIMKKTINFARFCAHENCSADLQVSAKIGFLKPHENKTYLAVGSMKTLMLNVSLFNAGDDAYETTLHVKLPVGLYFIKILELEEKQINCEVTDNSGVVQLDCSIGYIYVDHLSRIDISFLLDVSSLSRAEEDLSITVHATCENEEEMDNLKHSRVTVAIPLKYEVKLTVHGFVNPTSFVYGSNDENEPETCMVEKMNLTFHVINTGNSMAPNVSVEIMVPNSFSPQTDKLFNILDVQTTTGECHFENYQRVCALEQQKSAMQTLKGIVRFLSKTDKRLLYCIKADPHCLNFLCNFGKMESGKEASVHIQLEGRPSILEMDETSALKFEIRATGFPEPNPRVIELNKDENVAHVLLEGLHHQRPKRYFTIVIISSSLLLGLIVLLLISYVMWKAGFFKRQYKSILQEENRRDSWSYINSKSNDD

The assay deals with integrins haα4 and β1 (VLA-4) expressed on CHO cells (Homo sapiens, UniProt P05556+P13612). The assay is described as follows: In vitro Evaluation Test (1): binding of Eu3+-hVCAM-1 D1D7-IgG to CHO cells expressing integrins α4 and β1. The conditions noted are these: inhibition of Eu3+-hVCAM-1 D1D7-IgG binding to CHO cells expressing α4β1; Ki calculated from IC50.

In the case of `CO[C@H]1C[C@@H](COC2CCC(C(=O)O)CC2)N(C(=O)Cc2ccc3nc(Nc4ccccc4C)oc3c2)C1` (single isomer, unassigned) [20 (Isomer A)], the Ki is 3.9 nM.
